The data set in a line: Solubility of 3-hydroxy-3-methylbutyrate salts and complexes. The format is physicochemical. The source says:
The solubility of various 3-hydroxy-3-methylbutyrate salts and the complexes of Examples was each determined.

As to calcium 3-hydroxy-3-methylbutyrate, the Solubility is 15 g/100.
